The record followed here is PMC5797166, “A multidrug ABC transporter with a taste for GTP” (Scientific Reports, 2018).

Broadly, the Km is the substrate concentration at which the rate is half of its maximum.

This data set relates to Nc1ncnc2c1ncn2[C@@H]1O[C@H](COP(=O)(O)OP(=O)(O)OP(=O)(O)O)[C@@H](O)[C@H]1O. In words: purified protein. Particulars: proteoliposomes of E. coli lipids, 10 mM MgCl2, pH 8, 37 °C, cooperative fit, nH 1.73.

For PatA/PatB (Streptococcus pneumoniae R6), the Km came to 2830 ± 500 µM.
